Consider one molecule from paper PMC8585037 (International Journal of Molecular Sciences, 2021).

The test system of the assay is DA, 3-MT, DOPAC, 5-HT and 5-HIAA in dorsal striatum and nucleus accumbens. Briefly: Neurotransmitter and metabolite concentrations in post-mortem mouse brain tissue. It is filed as in vivo.
[1] abbreviates: Dorsal Striatum, 20 min after 3.75 mg/kg i.p.
Setting [2] is: Dorsal Striatum, 20 min after 12.5 mg/kg i.p.
[3] abbreviates: Nucleus Accumbens, 20 min after 3.75 mg/kg i.p.
Where [4] appears, read: Nucleus Accumbens, 20 min after 12.5 mg/kg i.p.

As to `CN[C@@H](C)Cc1ccccc1` [methamphetamine], the 5-HIAA concentration is 4.4 ± 0.6 nmol/g under setting [1], 4.3 ± 0.6 nmol/g under setting [2], 10.6 ± 1.4 nmol/g under setting [3] and 8.4 ± 1.9 nmol/g under setting [4]. Moreover, the DOPAC concentration amounted to 22.0 ± 3.2 nmol/g under setting [1], 12.1 ± 2.6 nmol/g under setting [2], 28.8 ± 2.6 nmol/g under setting [3] and 12.5 ± 2.7 nmol/g under setting [4]. Moreover, the “DOPAC concentration, % of control” value by setting is: (dorsal striatum, 3.75 mg/kg i.p., vs saline) 53 % of control; (dorsal striatum, 12.5 mg/kg i.p., vs saline) 29 % of control. In addition, the “3-MT concentration, % of control” value is, setting by setting: (dorsal striatum, 12.5 mg/kg i.p., vs saline (tendency)) 153 % of control; (nucleus accumbens, 3.75 mg/kg i.p., vs saline) 369 % of control.
